The values below come from PMC4745898 (Science signaling, 2015).

Chains of the proteins cited; added tags and fusions are not shown.
UniProt Q6RI86, whole entry: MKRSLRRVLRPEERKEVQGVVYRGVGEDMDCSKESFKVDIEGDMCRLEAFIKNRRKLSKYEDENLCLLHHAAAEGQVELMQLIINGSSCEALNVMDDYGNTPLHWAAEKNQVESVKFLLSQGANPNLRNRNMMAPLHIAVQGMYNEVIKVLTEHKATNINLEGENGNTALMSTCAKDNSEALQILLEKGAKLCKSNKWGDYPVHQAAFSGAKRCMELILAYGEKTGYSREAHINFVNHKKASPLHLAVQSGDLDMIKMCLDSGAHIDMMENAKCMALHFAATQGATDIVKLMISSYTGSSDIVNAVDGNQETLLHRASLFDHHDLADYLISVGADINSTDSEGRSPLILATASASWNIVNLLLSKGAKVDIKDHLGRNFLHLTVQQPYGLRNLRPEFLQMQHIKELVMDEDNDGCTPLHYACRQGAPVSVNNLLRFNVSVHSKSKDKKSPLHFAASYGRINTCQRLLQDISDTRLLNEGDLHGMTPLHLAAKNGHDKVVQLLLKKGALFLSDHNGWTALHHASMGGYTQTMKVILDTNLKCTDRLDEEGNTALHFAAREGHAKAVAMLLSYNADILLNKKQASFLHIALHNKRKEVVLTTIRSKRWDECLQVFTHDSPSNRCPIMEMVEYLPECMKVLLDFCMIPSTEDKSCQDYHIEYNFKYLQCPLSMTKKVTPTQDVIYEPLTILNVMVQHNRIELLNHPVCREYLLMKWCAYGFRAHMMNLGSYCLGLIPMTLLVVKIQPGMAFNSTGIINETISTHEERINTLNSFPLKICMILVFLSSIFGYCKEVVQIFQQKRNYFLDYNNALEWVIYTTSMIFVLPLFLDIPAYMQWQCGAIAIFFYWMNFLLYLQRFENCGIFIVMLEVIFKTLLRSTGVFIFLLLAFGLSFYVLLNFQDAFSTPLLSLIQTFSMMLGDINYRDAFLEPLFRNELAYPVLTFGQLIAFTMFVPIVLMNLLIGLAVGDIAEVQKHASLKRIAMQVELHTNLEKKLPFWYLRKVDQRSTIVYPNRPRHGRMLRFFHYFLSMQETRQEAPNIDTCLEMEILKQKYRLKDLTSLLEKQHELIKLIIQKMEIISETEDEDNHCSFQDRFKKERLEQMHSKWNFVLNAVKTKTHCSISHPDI

This assay has as its target TRPA1 (Rattus norvegicus, UniProt Q6RI86). Format: cell-based.

Broadly, the EC50 is the concentration at which the effect is half-maximal. Low readings indicate an effect from little substance, high ones a need for much substance. Regarding `C=CCN=C=S` [AITC], it took 4.4 µM to reach a half-maximal effect (EC50).
